By UniProt entry, the sequences of proteins in these tests, tags left out. Where a name states a change or a piece, a line headed by the entry shows the natural chain unless it says otherwise.
UniProt Q92551: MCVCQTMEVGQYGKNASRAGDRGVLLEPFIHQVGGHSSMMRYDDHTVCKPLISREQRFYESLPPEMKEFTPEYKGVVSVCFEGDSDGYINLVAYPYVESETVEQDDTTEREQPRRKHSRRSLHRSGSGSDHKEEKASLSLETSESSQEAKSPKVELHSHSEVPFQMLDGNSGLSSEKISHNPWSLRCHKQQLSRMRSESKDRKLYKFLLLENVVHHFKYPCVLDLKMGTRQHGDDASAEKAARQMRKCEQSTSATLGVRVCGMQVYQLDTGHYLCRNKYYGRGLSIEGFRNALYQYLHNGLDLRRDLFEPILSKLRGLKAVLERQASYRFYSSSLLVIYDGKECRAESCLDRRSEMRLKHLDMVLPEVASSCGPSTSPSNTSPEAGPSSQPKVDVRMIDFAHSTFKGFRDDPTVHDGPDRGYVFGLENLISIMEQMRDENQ

According to patent US20250197396A1, “COMPOUNDS FOR INHIBITING INOSITOL HEXAKISPHOSPHATE KINASE (IP6K) AND METHODS OF USE THEREOF” (Lieber Institute, Inc., priority 2020, published 2025):

Molecular target: IP6K1 (Homo sapiens (Human), UniProt Q92551)
Assay: IP6K1 IC50 of compounds of Formula (IA) and Formula (IB)
Assay type: biochemical

SMILES: O=C(O)c1ccc2c(c1)[nH]c(=O)n2C1CCN(Cc2ccc(Cl)cc2Cl)CC1
- IC50 (read-out: IP6K1 IC50): 3 to 30 µM

SMILES: O=C(O)c1ccc2[nH]c(=O)n(C3CCN(Cc4ccc(Cl)cc4Cl)CC3)c2c1
- IP6K1 IC50: + +

SMILES: O=C(O)c1ccc2[nH]c(=O)n(C3CCN(Cc4ccccc4Cl)CC3)c2c1
- IP6K1 IC50: + +
